{
  "sequences": {"note": "By UniProt entry, the sequences of proteins in these tests, tags left out.", "UniProt O95398, whole entry": "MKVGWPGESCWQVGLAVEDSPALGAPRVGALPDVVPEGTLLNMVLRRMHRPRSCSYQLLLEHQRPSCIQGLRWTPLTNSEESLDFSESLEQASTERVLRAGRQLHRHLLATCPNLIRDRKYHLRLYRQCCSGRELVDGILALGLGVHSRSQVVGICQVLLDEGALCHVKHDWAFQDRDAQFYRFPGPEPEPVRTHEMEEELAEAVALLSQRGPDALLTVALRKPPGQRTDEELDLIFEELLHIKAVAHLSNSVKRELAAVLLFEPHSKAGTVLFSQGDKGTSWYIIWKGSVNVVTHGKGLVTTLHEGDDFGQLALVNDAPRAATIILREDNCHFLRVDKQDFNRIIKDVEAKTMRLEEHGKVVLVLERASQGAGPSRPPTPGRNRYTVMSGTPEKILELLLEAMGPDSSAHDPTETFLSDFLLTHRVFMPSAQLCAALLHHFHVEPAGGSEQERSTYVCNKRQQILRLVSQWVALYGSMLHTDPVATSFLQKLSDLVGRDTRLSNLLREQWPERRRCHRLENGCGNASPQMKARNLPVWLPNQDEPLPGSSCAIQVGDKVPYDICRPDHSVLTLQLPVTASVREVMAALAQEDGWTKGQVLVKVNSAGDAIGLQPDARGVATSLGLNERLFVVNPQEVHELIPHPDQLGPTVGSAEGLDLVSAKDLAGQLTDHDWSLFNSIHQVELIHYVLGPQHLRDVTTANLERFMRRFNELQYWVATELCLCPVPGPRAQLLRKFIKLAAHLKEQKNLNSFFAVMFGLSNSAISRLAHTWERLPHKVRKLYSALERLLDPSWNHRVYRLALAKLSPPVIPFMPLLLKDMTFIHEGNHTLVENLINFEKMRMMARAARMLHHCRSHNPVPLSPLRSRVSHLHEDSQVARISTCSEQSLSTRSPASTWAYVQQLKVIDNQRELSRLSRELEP"},
  "source": "PubChem BioAssay AID1645883",
  "about": "(National Center for Advancing Translational Sciences (NCATS), 2021)",
  "note": "This is a selection; strong and weak results do not stand in their true shares. Some results for these compounds are left out of this collection, so the calls shown say nothing about other tests. Inconclusive results are not listed. Activity calls are given as the source filed them. The call rests on the fitted dose curve; in most records, active means well fitted activation curve with a large enough effect; inconclusive means small, poorly fitted or top-dose-only effect; inactive means no such curve, though single readings can be large or run the other way.",
  "data": [
    {"molecular_target": "Rap guanine nucleotide exchange factor 3 (Homo sapiens) (UniProt O95398)", "experiment": "Validation qHTS for agonist of cAMP-regulated guanine nucleotide exchange factor 3 (EPAC1); further: on the % scale 0 is the no-effect control and ±100 the full control effect; nearly all actives have a fitted effect of over 70% in size", "details": "EPAC1 Rap1b BODIPY-GDP exchange, fluorescence; active compounds read high; percent of cAMP control response", "source_text": "Assay Provider (PI): Xiaodong Cheng Ph.D.\nThe University of Texas Medical Branch, […], TX\nIn multi-cellular eukaryotic organisms, the effects of cAMP are transduced by two ubiquitously-expressed intracellular cAMP receptors, the classic protein kinase A/cAMP-dependent protein kinase (PKA/cAPK) and the more recently discovered exchange protein directly activated by cAMP/cAMP-regulated guanine nucleotide exchange factor (EPAC/cAMP-GEF). Both PKA and EPAC are ubiquitously expressed in all tissues, and an increase in intracellular cAMP levels will lead to the activation of both PKA and EPAC. […]\nThis qHTS will be used to screen the Molecular Libraries Small Molecule Repository (MLSMR) as a concentration-titration series using the NCGC unique quantitative screening (qHTS) platform to find activators for EPAC1. […] Activators are identified by monitoring the change in fluorescence signal as the exchanged free BODIPY-GDP has a reduced fluorescence compared to Rap1-bound BODIPY-GDP. […]\nBriefly, three uL of reagents (100 nM EPAC1, 250 nM RAP1B-BODIPY-GDP, 50 uM GDP) were dispensed into a 1536-well Greiner black solid-bottom medium binding assay plate. […] The assay plates were read at 5 minute intervals for 30 minutes in the ViewLux plate reader using 480nm excitation and 540nm emission filters. […]", "values": [
      {"compound": "CN1CCCC(OC(=O)C(O)(c2ccccc2)c2ccccc2)C1", "note": "(stereo unspecified)", "max response": "inactive: -28.7%"}
    ]}
  ]
}
